# From US20230364271A1, “METHODS AND COMPOSITIONS FOR INCREASING UPTAKE, INTERNALIZATION, AND/OR RETENTION OF SMALL MOLECULE LIGANDS” (CORNELL UNIVERSITY, priority 2020, published 2023)
# Entries after “also recorded” stand apart in the source; their conditions may differ.
# Columns and labels:
# CWR22rv1 tumors = assay: Tumor uptake of PSMA-617-Lu^177 in CWR22rv1 xenografts with cold antibody (Example 4); format: in vivo, BALB/c nude mice; settings: combined injection day 0, sacrifice day 3
# Experimental: CWR22rv1 cells (5×10^6 cells/200 μl matrigel/mouse) were injected into 40 BALB/c nude mice. After tumors were established and growing, all mice were injected intravenously (IV) via tail vein with PSMA-617-Lu^177 (300 μci/per mouse) on day 0. The treatment groups were as follows.
# All mice were euthanized 3 days after injection of PSMA-617-Lu^177. All tumors were harvested, weighed individually, and radioactivity counted.
# LNCaP tumors = assay: Early tumor uptake of PSMA I&T-Lu^177 in LNCaP tumors with unlabeled antibody (Example 5); format: in vivo, mice; settings: 2 hours after IV injection, compared to no antibody
# Experimental: The impact of J591 anti-PSMA antibody on PSMA ligand (PSMA I&T-Lu^177) internalization at an early time point (2 hours) in vivo was measured in vivo in an animal model. In this experiment, there were 3 groups of mice with 7 LNCaP tumors in each group. One group got PSMA I&T-Lu^177 injected IV alone; a 2nd group got PSMA I&T-Lu^177 co-injected with unlabeled Herceptin (anti-Her2) and the 3rd group got PSMA I&T-Lu^177 co-injected with unlabeled J591 (anti-PSMA). To determine the very short-term effect of the combination on tumor uptake of the radiolabeled PSMA I&T, the mice were sacrificed 2 hours after injection, their tumors harvested, weighed and PSMA I&T-Lu^177 radioactivity counted in a gamma counter to determine counts per mg of tumor. The group treated with anti-her2 was a negative control to rule out a non-specific effect of a non-PSMA antibody.
substance,measurement,setting,value
"Herceptin: antibody targeting HER2, an antibody negative control",effect of co-administered cold antibody on tumor uptake of PSMA-617-Lu^177,CWR22rv1 tumors,no impact; also recorded: no effect
same,effect of co-injected unlabeled antibody on tumor uptake of PSMA I&T-Lu^177,LNCaP tumors,no effect
